Read-outs that look alike come from different tables or passages of the source.
Format: physicochemical
Conditions: 0.1 N HCl 37° C.; for % Hydromorphone, % Ketal A-D in hydrolysis mixture: hydromorphone 2,4-pentanediol ketal isomers + unreacted hydromorphone, 1 mg/ml; for % increase in hydromorphone: hydromorphone released from hydrolysis of hydromorphone 2,4-pentanediol ketals

## CN1CC[C@]23c4c5ccc(O)c4O[C@H]2C(=O)CC[C@H]3[C@H]1C5 [Hydromorphone, hydromorphone, reference compound]
0 h
  % Hydromorphone, % Ketal A-D in hydrolysis mixture: 63.3%
  % increase in hydromorphone: 0%
0.58 h
  % Hydromorphone, % Ketal A-D in hydrolysis mixture: 72.5%
  % increase in hydromorphone: 9.2%
1.25 h
  % Hydromorphone, % Ketal A-D in hydrolysis mixture: 75.4%
  % increase in hydromorphone: 12.1%
2 h
  % Hydromorphone, % Ketal A-D in hydrolysis mixture: 78.8%
  % increase in hydromorphone: 15.5%
3.15 h
  % Hydromorphone, % Ketal A-D in hydrolysis mixture: 83%
  % increase in hydromorphone: 19.7%
4 h
  % Hydromorphone, % Ketal A-D in hydrolysis mixture: 85%
  % increase in hydromorphone: 21.7%

Source: US11091496B2, “Opioid ketal compounds and uses thereof” (priority 2013, dated 2021)
